Assay results published in patent US20210337838A1, “RECOMBINANT EXPRESSION OF FUMONISIN AMINE OXIDASE” (priority 2018, published 2021).

Tested on: Fumonisin B1
Assay: purified protein, by the assay type
Settings: other: recombinant AnFAO_15309; pH 7.0

Work on “AnFAO_15309 (Aspergillus niger CBS 513.88)” yielded a Km of 390.6 µM, a kcat of 0.145 s⁻¹ and a kcat/Km of 370 M⁻¹ s⁻¹.
